Format in all cases: cell-based
One assay addresses mouse KOR, Gαgustducin (Mus musculus, UniProt P33534). The assay is described as follows: TRUPATH BRET G protein assay, Gαgustducin. As to conditions: read-out: Emax (%) Gαgustducin.
A further assay has as its target mouse KOR, Gαz (Mus musculus, UniProt P33534). Put plainly: TRUPATH BRET G protein assay, Gαz. The following applies: read-out: Emax (%) Gαz. (In general: BRET reads energy transfer from a luciferase to a nearby fluorophore.)
In the next assay the target is mouse KOR, Gαi3 (Mus musculus, UniProt P33534). The assay is described as follows: TRUPATH BRET G protein assay, Gαi3. As to conditions: read-out: Emax (%) Gαi3.
The target of a further assay is mouse KOR, Gαi1 (Mus musculus, UniProt P33534). Put plainly: TRUPATH BRET G protein assay, Gαi1. The following applies: read-out: Emax (%) Gαi1.
For a further assay, the target named is mouse KOR, GαoB (Mus musculus, UniProt P33534). Put plainly: TRUPATH BRET G protein assay, GαoB. As to conditions: read-out: Emax (%) GαoB.
The next assay concerns the target mouse KOR, GαoA (Mus musculus, UniProt P33534). Put plainly: TRUPATH BRET G protein assay, GαoA. As to conditions: read-out: Emax (%) GαoA.
In a further assay the target is T1, mouse KOR, Gαi2 (Mus musculus, UniProt P33534).
T1 construct: expressed in transfected cells; host or cells: HEK293T (ATCC, CRL-3216), transient
Put plainly: TRUPATH BRET G protein assay, Gαi2.

Protein sequences, listed by entry. Tags and fused reporters are not part of them. Lines headed by an entry give the natural chain unless they say otherwise; changes in a name come on top.
UniProt P33534: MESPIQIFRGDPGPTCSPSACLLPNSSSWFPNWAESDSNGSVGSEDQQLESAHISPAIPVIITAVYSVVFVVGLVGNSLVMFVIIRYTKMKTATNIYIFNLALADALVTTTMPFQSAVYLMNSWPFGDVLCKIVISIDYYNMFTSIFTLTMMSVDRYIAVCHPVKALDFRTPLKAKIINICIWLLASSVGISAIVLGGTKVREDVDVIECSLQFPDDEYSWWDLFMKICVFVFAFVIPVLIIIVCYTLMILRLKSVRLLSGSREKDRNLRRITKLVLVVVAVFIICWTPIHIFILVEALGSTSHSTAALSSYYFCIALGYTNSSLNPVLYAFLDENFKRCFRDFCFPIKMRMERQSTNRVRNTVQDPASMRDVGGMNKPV

Here are results for 1 compound from paper PMC10698194 (Nature Communications, 2023).

Broadly, the Emax is the maximal effect, on the per cent scale that the assay sets. By EC50 is commonly meant the concentration at which the effect is half-maximal. A higher EC50 goes with weaker potency.

SMILES strings stand for the structures.

For the compound `CC(C)=CCN1CCC2(C)c3cc(O)ccc3CC1C2C` (centres unmarked) [Pentazocine, pentazocine], the Emax amounted to 79 ± 6% at mouse KOR, Gαgustducin; 40 ± 2% on mouse KOR, Gαz; 54 ± 3% on mouse KOR, Gαi3; 58 ± 4% at mouse KOR, Gαi1; 45 ± 7% at mouse KOR, GαoB; 35 ± 8% on mouse KOR, GαoA. The compound also showed an Emax at mouse KOR, Gαi2 (TRUPATH) of 42 ± 6%. At mouse KOR, Gαi2, the EC50 was 14 nM.
